Residue numbers refer to the chain shown, from its start. Where two headings read alike, the source gives them in different places.
Legend:
Assay in all cases: Enzyme kinetic parameters, 96-well plate assay
Assay type in all cases: biochemical
[1] = biological target: T1, plant-derived HRP (pHRP; Plant HRP Type VI-A, horseradish peroxidase) (Armoracia rusticana, UniProt P00433); conditions: Table 19; ABTS 0.1 - 7 mM, 1 mM hydrogen peroxide, 50 mM phosphate-citrate buffer pH 5, 30 °C
T1 sequence (P00433 31-338): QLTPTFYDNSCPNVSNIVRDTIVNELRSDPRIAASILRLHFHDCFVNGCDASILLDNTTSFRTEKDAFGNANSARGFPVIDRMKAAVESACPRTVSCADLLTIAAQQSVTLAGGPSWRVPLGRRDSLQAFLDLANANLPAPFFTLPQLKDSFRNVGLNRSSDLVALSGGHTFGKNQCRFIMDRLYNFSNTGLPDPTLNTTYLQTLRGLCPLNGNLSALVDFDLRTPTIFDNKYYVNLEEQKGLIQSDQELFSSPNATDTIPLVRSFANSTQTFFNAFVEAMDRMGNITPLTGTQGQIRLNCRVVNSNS
Description: (§1) Plant HRP Type VI-A (Cat. No.: P6782) was obtained from Sigma-Aldrich (St. Louis, MO, USA). All HRP variants produced in E. coli consisted of the sequence as set forth in SEQ ID NO: 2 with the indicated mutations unless specified otherwise.
(§2) For measurements with 3,3',5,5'-tetramethylbenzidine (TMB) as substrate, the reaction mixture in each well of the 96-well plate contained a saturating hydrogen peroxide concentration of 1 mM and varying TMB concentrations (20 - 550 µM) in 50 mM phosphate-citrate buffer pH 5 in a final volume of 200 µL. Protein sample (5 µL) was mixed with 175 µl TMB-buffer mixture and the reaction was started with 20 µl hydrogen peroxide solution (10 mM). The increase in absorption was followed at 652 nm for 60s at 30 °C in a Tecan Infinite M200 PRO instrument. The kinetic parameters were calculated using Sigma Plot software (Systat Software INC., San Jose, CA, USA) and an extinction coefficient of ε652 = 39 mM^-1 cm^-1 (see Josephy, et al. "The horseradish peroxidase-catalyzed oxidation of 3, 5, 3', 5'-tetramethylbenzidine. Free radical and charge-transfer complex intermediates." Journal of Biological Chemistry 257.7 (1982): 3669-3675).
Protein sample (5 µL) was mixed with 175 µl ABTS-buffer mixture and the reaction was started with 20 µl hydrogen peroxide solution (10 mM). […]

Chains of the proteins cited; added tags and fusions are not shown. Residues count along the entry.
UniProt P00433, 31-338 N43D/N87S/N205S/N285D/N298D: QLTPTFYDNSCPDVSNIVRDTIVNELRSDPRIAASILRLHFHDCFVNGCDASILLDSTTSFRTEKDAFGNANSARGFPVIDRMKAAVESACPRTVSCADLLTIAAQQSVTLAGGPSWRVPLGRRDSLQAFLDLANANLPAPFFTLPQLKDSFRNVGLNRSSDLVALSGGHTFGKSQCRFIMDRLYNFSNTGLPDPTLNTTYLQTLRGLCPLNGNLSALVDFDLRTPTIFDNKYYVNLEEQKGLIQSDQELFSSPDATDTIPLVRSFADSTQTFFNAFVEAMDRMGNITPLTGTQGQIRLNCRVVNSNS
UniProt P00433, 31-338 N43D/N87S/P176Q/N205S/N285D/N298D/N305K: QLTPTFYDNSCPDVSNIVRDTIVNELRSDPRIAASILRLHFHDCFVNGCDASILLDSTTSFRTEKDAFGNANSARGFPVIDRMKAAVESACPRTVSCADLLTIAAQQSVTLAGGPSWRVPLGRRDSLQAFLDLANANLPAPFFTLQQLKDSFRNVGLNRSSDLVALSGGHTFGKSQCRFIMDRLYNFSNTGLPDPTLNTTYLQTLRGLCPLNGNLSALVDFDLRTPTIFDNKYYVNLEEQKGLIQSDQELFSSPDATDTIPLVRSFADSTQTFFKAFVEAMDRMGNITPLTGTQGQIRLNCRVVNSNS

[2] = biological target: T2, horseradish peroxidase variant HRP N13D/N57S/N175S/N255D/N268D (Armoracia rusticana, UniProt P00433, N205S/N285D/N298D/N43D/N87S); conditions: Table 18, ABTS 0.1 - 7 mM, 1 mM hydrogen peroxide, 50 mM phosphate-citrate buffer pH 5, 30 °C
T2 sequence (P00433 31-338 N43D/N87S/N205S/N285D/N298D): T1 sequence (P00433 31-338) with N13D, N57S, N175S, N255D, N268D
Description: as §1, §2
(§3) Protein sample (5 µL) was mixed with 175 µl ABTS-buffer mixture and the reaction was started with 20 µl hydrogen peroxide solution (10 mM). The increase in absorption was followed at 420 nm for 120 s at 30 °C in a Tecan Infinite M200 PRO instrument. The kinetic parameters were calculated using Sigma Plot software (Systat Software INC., San Jose, CA, USA) and an extinction coefficient of ε420 = 36 mM^-1 cm^-1 (see Childs and Bardsley. "The steady-state kinetics of peroxidase with 2, 2'-azino-di-(3-ethyl-benzthiazoline-6-sulphonic acid) as chromogen." Biochemical Journal 145.1 (1975): 93-103).
as §3, with “The” for “Protein sample (5 µL) was mixed with 175 µl ABTS-buffer mixture and the reaction was started with 20 µl hydrogen peroxide solution (10 mM). The”

[3] = biological target: T3, horseradish peroxidase variant HRP N13D/N57S/P146Q/N175S/N255D/N268D/N275K (mHRP, SEQ ID NO: 4) (Armoracia rusticana, UniProt P00433, N205S/N285D/N298D/N305K/N43D/N87S/P176Q); conditions: ABTS 0.1 - 7 mM, 1 mM hydrogen peroxide, 50 mM phosphate-citrate buffer pH 5, 30 °C; for Km: read-out: Km (substrate ABTS)
T3 sequence (P00433 31-338 N43D/N87S/P176Q/N205S/N285D/N298D/N305K): T1 sequence (P00433 31-338) with N13D, N57S, P146Q, N175S, N255D, N268D, N275K
Description: as §1, §2, §3
as §3, with “The” for “Protein sample (5 µL) was mixed with 175 µl ABTS-buffer mixture and the reaction was started with 20 µl hydrogen peroxide solution (10 mM). The”

CCn1c(=NN=c2sc3cc(S(=O)(=O)O)ccc3n2CC)sc2cc(S(=O)(=O)O)ccc21 [ABTS, 2,2'-azino-bis(3-ethylbenzothiazoline-6-sulfonic acid)]
kcat (substrate ABTS) [1]: 734 ± 41 s⁻¹
kcat (substrate ABTS) [2]: 786 ± 74 s⁻¹
Km ([2]; read-out: Km (substrate ABTS)): 845 ± 270 µM
kcat (substrate ABTS) ([3]; Table 18): 716 ± 58 s⁻¹
kcat (substrate ABTS) ([3]; Table 19): 702 ± 56 s⁻¹
Km ([3]; Table 18): 765 ± 210 µM
Km ([3]; Table 19): 860 ± 230 µM
